Where two headings read alike, the source gives them in different places.
Columns and labels:
VX-2 tumor cells [1] = conditions: for Normal region counts / Tumor counts: 1.5 mCi i.v.; for Tumor uptake/normal region uptake ratio: Mean ± S.D. from 3 experiments
[2] = Stability test of radiopharmaceuticals in the human plasma (purity by TLC); conditions: room temperature, mean of 3 experiments
Protocol: (§1) The stability of radiopharmaceuticals was expressed as the purity of radiopharmaceutical at a given time, and measured after 0, 2, 4 and 6 hrs in a physiological saline and the human plasma, respectively. […] After well stirring the ingredients in each vial, the stability was measured at given times at room temperature.
(§2) The stability was measured as follows. 5 μl of each radiopharmaceutical was deposited in the lower part of TLC and was developed using methyl ethyl ketone (or acetone) and 0.9% physiological saline, respectively. Upon completion of development, each TLC was equally divided into 2 parts and the radioactivity of each part was measured using gamma counter. The stability was calculated by measurement of the purity from the obtained radioactivity. […] The purity of radiopharmaceuticals is calculated as follows.
(§3) 100%−[(radioactivity in the upper part of TLC developed with acetone÷radioactivity in the whole TLC developed with acetone)+(radioactivity in the lower part of TLC developed with 0.9% physiological saline÷radioactivity in the whole TLC developed with 0.9% physiological saline)]×100%

[3] = Stability test of radiopharmaceuticals in a physiological saline (purity by TLC); type: physicochemical; conditions: room temperature, mean of 3 experiments
Protocol: as §1, §2, §3

VX-2 tumor cells [4] = conditions: for Uptake rate of radiopharmaceutical: 3 hours after injection, Mean ± S.D. from 3 experiments
[5] = anterior image, 1 hour after injection
[6] = anterior image, 3 hours after injection
[7] = posterior image, 1 hour after injection
[8] = posterior image, 3 hours after injection

Substance | Tumor/Normal ratio (VX-2 tumor cells [1]; [5]) | Normal region counts (VX-2 tumor cells [1]; [5]) [counts] | Tumor counts (VX-2 tumor cells [1]; [5]) [counts] | Tumor uptake/normal region uptake ratio (VX-2 tumor cells [1]; anterior image, 1 hour) | Tumor/Normal ratio (VX-2 tumor cells [1]; [6]) | Normal region counts (VX-2 tumor cells [1]; [6]) [counts] | Tumor counts (VX-2 tumor cells [1]; [6]) [counts] | Tumor uptake/normal region uptake ratio (VX-2 tumor cells [1]; anterior image, 3 hours) | Tumor/Normal ratio (VX-2 tumor cells [1]; [7]) | Normal region counts (VX-2 tumor cells [1]; [7]) [counts] | Tumor counts (VX-2 tumor cells [1]; [7]) [counts] | Tumor/Normal ratio (VX-2 tumor cells [1]; [8]) | Normal region counts (VX-2 tumor cells [1]; [8]) [counts] | Tumor counts (VX-2 tumor cells [1]; [8]) [counts] | Purity of radiopharmaceuticals at given times ([2]; 0 h) [%] | Purity of radiopharmaceuticals at given times ([2]; 2 h) [%] | Purity of radiopharmaceuticals at given times ([2]; 4 h) [%] | Purity of radiopharmaceuticals at given times ([2]; 6 h) [%] | Purity of radiopharmaceuticals at given times ([3]; 0 h) [%] | Purity of radiopharmaceuticals at given times ([3]; 2 h) [%] | also measured
99mTc-5-thio-D-glucose [^99mTc-5-thio-D-glucose] | 2.0 | 600 | 1208 | 2.55 ± 0.71 | 2.2 | 478 | 1037 | 3.12 ± 0.67 | 2.5 | 613 | 1538 | 2.9 | 436 | 1283 | 99.8 | 98.2 | 95.1 | 90.0 | 99.8 | 98.7 | Purity of radiopharmaceuticals at given times ([3]; 4 h): 98.2%; Purity of radiopharmaceuticals at given times ([3]; 6 h): 98.0%
^99mTc-1-thio-D-glucose | 4.0 | 1762 | 7133 | 3.32 ± 0.79 | 6.2 | 888 | 5499 | 3.82 ± 1.24 | 4.1 | 2142 | 8876 | 6.1 | 1172 | 7194 | 99.5 | 98.0 | 95.4 | 92.0 | 99.5 | 99.6 | absorption into tumor seen in gamma camera images (FIG. 1) (VX-2 tumor cells [1]; images at 1 and 3 hours after injection, in words): a large amount; Purity of radiopharmaceuticals at given times ([3]; 4 h): 98.6%; Purity of radiopharmaceuticals at given times ([3]; 6 h): 98.1%; Uptake rate of radiopharmaceutical (VX-2 tumor cells [4]; Blood): 0.099 ± 0.035 % ID/g; Uptake rate of radiopharmaceutical (VX-2 tumor cells [4]; Bone): 0.019 ± 0.015 % ID/g; Uptake rate of radiopharmaceutical (VX-2 tumor cells [4]; Heart): 0.120 ± 0.038 % ID/g; Uptake rate of radiopharmaceutical (VX-2 tumor cells [4]; Kidney): 6.225 ± 1.619 % ID/g; Uptake rate of radiopharmaceutical (VX-2 tumor cells [4]; Liver): 0.330 ± 0.138 % ID/g; Uptake rate of radiopharmaceutical (VX-2 tumor cells [4]; Lung): 0.182 ± 0.072 % ID/g; Uptake rate of radiopharmaceutical (VX-2 tumor cells [4]; Normal (left thigh muscle)): 0.026 ± 0.018 % ID/g; Uptake rate of radiopharmaceutical (VX-2 tumor cells [4]; Small intestine): 0.125 ± 0.039 % ID/g; Uptake rate of radiopharmaceutical (VX-2 tumor cells [4]; Spleen): 0.145 ± 0.065 % ID/g; Uptake rate of radiopharmaceutical (VX-2 tumor cells [4]; Stomach): 0.109 ± 0.051 % ID/g; Uptake rate of radiopharmaceutical (VX-2 tumor cells [4]; Tumor (right thigh muscle)): 0.165 ± 0.048 % ID/g; abdomen uptake (VX-2 tumor cells [4]; rabbits, in words): negligible

From patent US20030120046A1, “Radioisotope-labeled complexes of glucose derivatives and kits for the preparation thereof” (priority 2000, published 2003)
